The assay concerns the target glycosylphosphatidyl-inositol (GPI)-anchored EGFP on HEK293T cells. The experiment in a line: flow cytometry screen of single phage nanobody clones on EGFP-GPI expressing HEK293T cells; ratio of Q2 to Q1 signal.

As for “94 phage nanobody clones derived from PANL selection round 3”, the percent of clones that recognized EGFP-GPI+ cells with strong binding (Q2/Q1>1) is above 95%.

For the origin of these results see patent US20220090089A1.
